In US7122651B1, “Nucleic acid molecules encoding opioid growth factor receptors” (priority 1998, dated 2006) one finds Kd and IC50 data, which are given here for two substances.

Test [1] has as its target Xenografts of Capan-1 growing in nude mice (Homo sapiens, UniProt Q9NZT2). The following applies: Capan-1 xenograft, harvested 40 days after inoculation.
Test [2] concerns the target human pancreatic cancer tissue (Homo sapiens, UniProt Q9NZT2). The conditions noted are these: read-out: mean Kd; specimens from 3 patients.
The next test addresses normal human pancreas (Homo sapiens, UniProt Q9NZT2). The following applies: read-out: mean Kd; 3 normal specimens.
The target in test [3] is normal mucosa enriched nuclear preparations (Homo sapiens, UniProt Q9NZT2). The conditions noted are these: read-out: Specific affinity (kα); normal tissues.
Test [4] has as its target PANC-1 subcellular fractions (P1, P2, P3, S3) (Homo sapiens, UniProt Q9NZT2). The conditions noted are these: P1 fraction, Nuclear.
In test [5] the target is T1, PANC-1 nuclear (P1) homogenates (Homo sapiens, UniProt Q9NZT2).
T1 construct: host or cells: PANC-1; nuclear (P1) homogenates, and P2, P3 and S3 fractions in the fractionation study
T1 sequence (Q9NZT2 1-677): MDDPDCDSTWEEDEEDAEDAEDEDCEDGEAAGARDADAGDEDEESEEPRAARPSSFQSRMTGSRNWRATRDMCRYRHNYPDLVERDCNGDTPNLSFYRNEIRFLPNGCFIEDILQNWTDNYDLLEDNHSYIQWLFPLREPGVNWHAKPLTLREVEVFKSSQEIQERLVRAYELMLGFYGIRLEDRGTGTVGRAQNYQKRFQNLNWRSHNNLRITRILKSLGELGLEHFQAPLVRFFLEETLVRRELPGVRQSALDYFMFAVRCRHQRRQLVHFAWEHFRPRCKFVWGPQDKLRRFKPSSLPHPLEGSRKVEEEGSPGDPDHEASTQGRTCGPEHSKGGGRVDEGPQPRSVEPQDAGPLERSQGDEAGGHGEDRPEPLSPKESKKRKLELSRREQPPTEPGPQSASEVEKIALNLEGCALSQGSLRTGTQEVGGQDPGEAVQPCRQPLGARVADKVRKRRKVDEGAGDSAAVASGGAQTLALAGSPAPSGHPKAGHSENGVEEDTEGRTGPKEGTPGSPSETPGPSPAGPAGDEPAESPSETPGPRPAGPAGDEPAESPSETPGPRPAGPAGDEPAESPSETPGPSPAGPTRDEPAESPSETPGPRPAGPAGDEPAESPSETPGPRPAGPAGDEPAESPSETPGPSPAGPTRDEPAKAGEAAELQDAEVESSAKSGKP
Description: Binding of [^3H]-[Met^5]-enkephalin to PANC-1 nuclear homogenates (saturation and characterization).

Test [6] has as its target MIA PaCA-2 nuclear fraction (Homo sapiens, UniProt Q9NZT2). The following applies: MIA PaCA-2, log phase.
Another test deals with Capan-1 nuclear fraction (Homo sapiens, UniProt Q9NZT2). The following applies: Capan-1, log phase.
Test [7] has as its target SCCHN enriched nuclear preparations (Homo sapiens, UniProt Q9NZT2). The following applies: read-out: Specific affinity (kα); neoplastic tissues.
The target in test [8] is T2, nuclear homogenates of human pancreatic tumor cells (PANC-1) (Homo sapiens, UniProt Q9NZT2).
T2 construct: host or cells: PANC-1; nuclear (P1) homogenates, and P2, P3 and S3 fractions in the fractionation study
T2 sequence (Q9NZT2 1-677): T1 sequence (Q9NZT2 1-677)
Description: Competition for binding of [^3H]-[Met^5]-enkephalin in PANC-1 nuclear homogenates. The following applies: read-out: competition value (IC50); 1 or 2 nM [^3H][Met^5]-enkephalin.

Regarding [^3H]-[Met^5]-enkephalin, the Kd is 2.9 ± 1.5 nM in test [1]; 2.1 ± 1 nM in test [2]; 9.6 ± 2.9 nM on normal human pancreas; 11.6 ± 2.5 nM in test [3]; 2.3 ± 0.5 nM in test [4]; 5.1 ± 1.4 nM in test [5] (PANC-1, Table IV, at least 3 independent assays). Also, the Kd in test [5] (PANC-1 Confluent, 5 days in culture) was 5.3 nM; in test [5] (PANC-1 Log phase, 3 days in culture) it was 4.2 ± 2.1 nM; in test [5] (PANC-1 Post-confluent, 7–8 days in culture) it was 13.1 ± 1.1 nM; in test [6] it was 10.8 ± 5.5 nM; on Capan-1 nuclear fraction it was 6.5 ± 4.1 nM; in test [7], 4.1 ± 0.4 nM.

With [Met^5]-enkephalin, the IC50 (commonly the point on the concentration scale where inhibition reaches its midpoint) in test [8] came out at 5.5 nM.
